Measurements published in US20260014180A1 (published 2026).

By UniProt entry, the sequences of proteins in these tests, tags left out.
UniProt P21397, whole entry, species assumed: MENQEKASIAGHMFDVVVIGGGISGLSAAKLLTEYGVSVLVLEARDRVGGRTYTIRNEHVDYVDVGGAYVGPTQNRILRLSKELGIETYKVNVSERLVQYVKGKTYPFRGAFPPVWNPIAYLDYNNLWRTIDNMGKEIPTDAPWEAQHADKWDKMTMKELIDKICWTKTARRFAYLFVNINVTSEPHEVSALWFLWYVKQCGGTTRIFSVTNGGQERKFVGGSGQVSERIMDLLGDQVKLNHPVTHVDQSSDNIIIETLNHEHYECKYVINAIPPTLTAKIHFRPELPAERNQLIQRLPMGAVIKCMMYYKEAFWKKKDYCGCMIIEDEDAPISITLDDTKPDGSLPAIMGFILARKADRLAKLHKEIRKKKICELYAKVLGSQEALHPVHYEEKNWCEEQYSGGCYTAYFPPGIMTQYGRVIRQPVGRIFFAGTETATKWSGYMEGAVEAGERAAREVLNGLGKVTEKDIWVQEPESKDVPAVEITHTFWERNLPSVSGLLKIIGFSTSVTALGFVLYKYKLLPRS
UniProt P27338, whole entry, species assumed: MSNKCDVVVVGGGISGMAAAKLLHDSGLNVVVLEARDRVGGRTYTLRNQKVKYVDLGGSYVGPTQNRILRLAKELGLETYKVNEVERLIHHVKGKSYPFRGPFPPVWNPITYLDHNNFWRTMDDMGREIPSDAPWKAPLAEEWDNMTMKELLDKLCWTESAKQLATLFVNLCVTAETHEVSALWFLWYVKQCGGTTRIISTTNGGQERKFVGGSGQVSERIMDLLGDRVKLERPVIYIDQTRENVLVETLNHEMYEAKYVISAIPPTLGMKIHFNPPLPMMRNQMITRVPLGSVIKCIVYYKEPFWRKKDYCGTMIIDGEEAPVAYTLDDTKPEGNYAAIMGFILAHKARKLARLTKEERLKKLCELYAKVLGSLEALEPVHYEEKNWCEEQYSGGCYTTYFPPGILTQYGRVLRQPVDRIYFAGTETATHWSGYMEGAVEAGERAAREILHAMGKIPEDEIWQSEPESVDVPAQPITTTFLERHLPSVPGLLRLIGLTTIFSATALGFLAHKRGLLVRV

Tests used:
MAO-A [1] = biological target: T1, MAO-A (Homo sapiens, UniProt P21397); assay: Sigma-Aldrich commercial kit MAO-A inhibition assay (peroxide/fluorescence); type: biochemical; settings: first round; inhibitor control at 5 uM
MAO-A [2] = biological target: T1, MAO-A; settings: in vivo; cited from earlier work
MAO-B = MAO-B (Homo sapiens, UniProt P27338); settings: in vivo; cited from earlier work

| Structure (SMILES) | MAO-A inhibition (MAO-A [1]) | duration of MAO-A inhibition (MAO-A [2]) | duration of MAO-B inhibition (MAO-B) |
| --- | --- | --- | --- |
| C#CCN(C)CCCOc1ccc(Cl)cc1Cl [Clorgyline] | 94.16% | – | – |
| NNCCc1ccccc1 [Phenelzine] | – | up to three weeks | up to three weeks |
